Laboratory results as given in patent publication US12053465B2, “KCC2 expression enhancing compounds and uses thereof” (Whitehead Institute for Biomedical Research, priority 2017, dated 2024).

Assays:
[1] = tested on: KCC2 expression (KCC2-2A-luciferase reporter); assay: KCC2-2A-luciferase reporter compound screening with wild type KCC2 reporter neurons; assay type: cell-based, human
Text: In addition, CRISPR/Cas9 genome editing technology was utilized to insert a 2A-luciferase reporter gene directly before the stop codon of the endogenous KCC2 locus in human ES cells, thus creating wild type (WT) cells isogenic to the MECP2-null RTT human KCC2 reporter neurons. KCC2 expression reporter human neurons were differentiated from the gene-targeted ES cells and utilized as the substrate for unbiased compound screening (FIG. 6A; see also FIG. 1A).
Gene-targeted KCC2 reporter cells were used in a HTS pipeline to screen for small molecule compounds that enhance KCC2 gene expression (FIG. 1B; note that reporter neurons were adapted to 384 well format for some screens, and the same workflow was used both for WT KCC2 reporter neurons and RTT KCC2 reporter neurons). Six replicate screens were performed in WT KCC2 reporter neurons using the LINCS and SMART libraries as well as the ICCB known bioactive library (FIG. 6B).
The cells were dissociated with Accutase, resuspended in 10 ml neuronal differentiation medium to count cells. the final cell seeding density was 20 k-40 k cells per well for 96-well plates, and ˜10 k cells per well for 384-well plates. […]
For some screens, on the day of the luciferase assay, the cells were washed with PBS three times using a BioTek EL406 plate washer. […] Assay readouts were performed on a Tecan M1000 Infinite plate reader. […]

[2] = tested on: KCC2 expression (KCC2-2A-luciferase reporter); assay: KCC2-2A-luciferase reporter compound screening with RTT KCC2 reporter neurons; assay type: cell-based, human
Procedure: The RTT KCC2-2A-luciferase reporter neurons were treated with the test compounds from the LINCS kinase inhibitor library and IRSF SMART compound library and incubated before being lysed. The cell lysate was divided into two parts to measure luciferase signal (KCC2 translation) and Cell-Titer Glow (CTG, amount of ATP). The luciferase signal was normalized to CTG for each well, and the Luc/CTG ratio was normalized to the in-plate DMSO negative control to calculate fold change ratio.
Additional screens for reporter activation in the MECP2-null RTT human KCC2 reporter neurons (isogenic to the WT reporter cells used above) were performed with the LINCS and SMART libraries as well as the ICCB known bioactive library and identified hits as compounds with B score >3.
The cells were dissociated with Accutase and resuspended in 10 ml neuronal differentiation medium to count cells. The cells were then diluted to the final density of 200,000 to 500,000 cells/ml. Matrigel was added to the cell suspension at a dilution ratio of 1:300 to promote cell adhesion after plating. AraC was added to cell suspension at the concentration of 2 μM to inhibit cell division. […] The resulting single-cell suspension was counted using a Countess automated cell counter (Invitrogen Countess Automated Cell Counter, Catalog no. C10227). […]

## O=C1NC(=O)C(c2ccccc2[N+](=O)[O-])=C1Nc1ccc(O)c(Cl)c1 [SB-415286, 3-[(3-Chloro-4-hydroxyphenyl)-amino]-4-(2-nitrophenyl)-1H-pyrrol-2,5-dione]
[1]
  B Score: 5.58
[2]
  B Score: 5.58
